{
  "source": "paper PMC7696216",
  "about": "“Bi-Functional Alginate Oligosaccharide–Polymyxin Conjugates for Improved Treatment of Multidrug-Resistant Gram-Negative Bacterial Infections” (Pharmaceutics, 2020)",
  "key": {"[1]": {"tested_on": "P. aeruginosa R22", "type": "cell-based, Pseudomonas aeruginosa", "details": "SI = IC50 (µg/mL, HK-2)/MIC (µg/mL)", "description": "(§1) The minimum inhibitory concentration (MIC) of colistin (as sulphate salt) and polymyxin B and their conjugates was determined using the broth microdilution method in MH broth in accordance with standard guidelines. Test organisms were suspended in MH broth (100 µL, 5 × 10^5 colony forming units (CFU)/mL) and incubated in 96-well microtitre plates in serial two-fold dilutions of the test compounds. […] Results were expressed as mode (n = 3). […] Selective activities of the polymyxins and OligoG–polymyxin conjugates were calculated as follows:Selectivity index (SI) = IC50 (μg/mL)/MIC (μg/mL).\n(§2) To account for turbidity caused by mucin, resazurin dye solution (30 µL, 0.01% w/v in dH2O) was added to each well and incubated for a further 3 h at 37 °C. Colour changes were observed and recorded."}, "[2]": {"tested_on": "P. aeruginosa MDR 301", "type": "cell-based, Pseudomonas aeruginosa", "details": "SI = IC50 (µg/mL, HK-2)/MIC (µg/mL)", "description": "as §1\n(§3) In addition, alginate oligomer–colistin conjugates (3 mg/mL) were incubated in PBS at pH 7 containing bacterial alginate lyase (1 and 10 U/mL) at 37 °C for 24 h, before preparing microtitre plates as described above.\n(§4) To study the antimicrobial efficacy of test compounds under more clinically relevant conditions, the MIC protocol was performed using AS medium instead of MH broth. The plates were incubated with resazurin as described above."}, "[3]": {"tested_on": "P. aeruginosa NH57388A", "test": "MIC, broth microdilution", "type": "cell-based, Pseudomonas aeruginosa", "details": "SI = IC50 (µg/mL, HK-2)/MIC (µg/mL)", "description": "as §1, §4"}, "[4]": {"tested_on": "P. aeruginosa NCTC 10662", "type": "cell-based, Pseudomonas aeruginosa", "details": "SI = IC50 (µg/mL, HK-2)/MIC (µg/mL)", "description": "as §1"}, "[5]": {"tested_on": "K. pneumoniae KP05 506", "type": "cell-based, Klebsiella pneumoniae", "description": "as §1, §3, §4"}, "[6]": {"tested_on": "K. pneumoniae IR25", "type": "cell-based, Klebsiella pneumoniae", "description": "as §1, §2"}, "[7]": {"tested_on": "A. baumannii MDR ACB", "type": "cell-based, Acinetobacter baumannii", "details": "SI = IC50 (µg/mL, HK-2)/MIC (µg/mL)", "description": "as §1, §2"}, "[8]": {"tested_on": "A. baumannii 7789", "type": "cell-based, Acinetobacter baumannii", "details": "SI = IC50 (µg/mL, HK-2)/MIC (µg/mL)", "description": "as §1, §3, §4"}, "[9]": {"tested_on": "E. coli NCTC 10418", "type": "cell-based, Escherichia coli", "details": "SI = IC50 (µg/mL, HK-2)/MIC (µg/mL)", "description": "as §1"}, "[10]": {"tested_on": "E. coli PN21", "test": "MIC, broth microdilution", "type": "cell-based, Escherichia coli", "details": "SI = IC50 (µg/mL, HK-2)/MIC (µg/mL)", "description": "as §1"}, "[11]": {"tested_on": "range of Gram-negative bacterial pathogens", "test": "MIC and selectivity index across the panel of isolates", "type": "cell-based", "details": "mean SI over the isolates of Table S4", "description": "as §1"}, "[12]": {"tested_on": "HK-2 cells", "test": "MTT cytotoxicity assay", "type": "cell-based, Human", "details": "72 h incubation, 0–1 mg/mL polymyxin base, ±SEM (n = 18)", "description": "A 3-(4,5-dimethylthiazol-2-yl)-2,5-diphenyltetrazolium bromide (MTT) assay was used to measure cell viability and proliferation of HK-2 cells. Cells were seeded into sterile 96-well microtitre plates at 1 × 10^5 cells/mL (100 µL/well) and allowed to adhere for 24 h at 37 °C. The following day, the old medium was replaced with test compounds (0–1 mg/mL polymyxin base) dissolved in filter-sterilised K-SFM. After 67 h incubation at 37 °C, filter-sterilised MTT solution (20 µL of a 5 mg/mL solution in PBS) was added to each well and incubated for a further 5 h at 37 °C. Finally, the medium was carefully removed, and the formazan crystals were solubilised in DMSO (100 µL) for 30 min. Absorbance was measured at 550 nm using a Fluostar Omega microplate reader. The results are stated as percentage cell viability compared with the untreated control cells. Data are expressed as mean ± SEM (n = 18)."}, "[13]": {"tested_on": "A. baumannii 7789", "test": "Time-to-kill (TTK) in PK–PD model", "type": "cell-based, Acinetobacter baumannii", "details": "0.25 µg/mL colistin base, after 4 h", "description": "A modified experimental set-up was used to investigate the concentration- and time-dependent antimicrobial activity of test compounds using a TTK assay (48 h). […] The OC contained MH broth inoculated with A. baumannii 7789 (5 × 10^5 CFU/mL). Samples were collected from the OC (0, 2, 4, 6, 24 and 48 h) and colony counts (CFU/mL) determined using drop counts. Treatments were considered bactericidal if the reduction in viable bacterial counts was ≥3 log10 CFU/mL (equivalent to 99.9% of the initial inoculum) and bacteriostatic if the decrease was <3 log10 CFU/mL [33, 34]. Growth (no test compounds) and sterility (no bacteria) controls were also performed."}},
  "note": "Where two headings read alike, the source gives them in different places.",
  "data": [
    {"substance": "colistin sulphate", "values": [
      {"measurement": "Selectivity index (SI) value", "setting": "[1]", "value": 52},
      {"measurement": "Selectivity index (SI) value", "setting": "[2]", "value": 52},
      {"measurement": "Selectivity index (SI) value", "setting": "[3]", "value": 104},
      {"measurement": "Selectivity index (SI) value", "setting": "[4]", "value": 208},
      {"measurement": "MIC", "setting": "[5]; AS (artificial sputum) medium, resazurin read-out", "value": 1, "unit": "μg/mL Drug Base"},
      {"measurement": "MIC", "setting": "[5]; MH broth (Table S7 comparison with AS medium)", "value": 0.125, "unit": "μg/mL Drug Base"},
      {"measurement": "Selectivity index (SI) value", "setting": "[5]; SI = IC50 (µg/mL, HK-2)/MIC (µg/mL), K. pneumoniae KP05 506", "value": 208},
      {"measurement": "MIC", "setting": "[5]; alginate lyase in MH broth, 0 U/mL", "value": 0.008, "unit": "μg/mL Drug Base"},
      {"measurement": "MIC", "setting": "[5]; alginate lyase in MH broth, 1 U/mL", "value": 0.063, "unit": "μg/mL Drug Base"},
      {"measurement": "MIC", "setting": "[5]; alginate lyase in MH broth, 10 U/mL", "value": 0.008, "unit": "μg/mL Drug Base"},
      {"measurement": "MIC", "setting": "[5]; pre-incubation with alginate lyase 0 U/mL (3 mg/mL in PBS pH 7, 37 °C, 24 h), then MIC in MH broth", "value": 0.008, "unit": "μg/mL Drug Base"},
      {"measurement": "MIC", "setting": "[5]; pre-incubation with alginate lyase 1 U/mL (3 mg/mL in PBS pH 7, 37 °C, 24 h), then MIC in MH broth", "value": 0.004, "unit": "μg/mL Drug Base"},
      {"measurement": "MIC", "setting": "[5]; pre-incubation with alginate lyase 10 U/mL (3 mg/mL in PBS pH 7, 37 °C, 24 h), then MIC in MH broth", "value": 0.004, "unit": "μg/mL Drug Base"},
      {"measurement": "MIC", "setting": "[6]; MH broth, mucin 0%, resazurin read-out", "value": 0.063, "unit": "μg/mL Drug Base"},
      {"measurement": "Selectivity index (SI) value", "setting": "[6]; SI = IC50 (µg/mL, HK-2)/MIC (µg/mL), K. pneumoniae IR25", "value": 413},
      {"measurement": "Selectivity index (SI) value", "setting": "[7]", "value": 52},
      {"measurement": "Selectivity index (SI) value", "setting": "[8]", "value": 104},
      {"measurement": "Selectivity index (SI) value", "setting": "[9]", "value": 3},
      {"measurement": "Selectivity index (SI) value", "setting": "[10]", "value": 3},
      {"measurement": "Selectivity index (SI) value, Mean", "setting": "[11]", "value": 184},
      {"measurement": "Half maximal inhibitory concentration (IC50), cytotoxicity", "setting": "[12]", "value": 26, "unit": "µg/mL"},
      {"measurement": "viable bacterial counts, fold lower compared to the control", "setting": "[13]", "value": "~ 5 fold"},
      {"measurement": "viable bacterial counts, fold lower compared to the initial starting bacterial concentration", "setting": "[13]", "value": "~ 2 fold"}
    ]}
  ]
}
